System: dopamine in the striatum
Experiment: Microdialysis in Sprague-Dawley rats
Assay type: in vivo
Conditions: 50 mg/kg ip, compared to conventional L-DOPA, FIG. 1

half life of deu-dopamine in the striatum/brain: prolonged
SMILES: [2H]C([2H])(c1ccc(O)c(O)c1)[C@]([2H])(N)C(=O)O [d3-L-DOPA]
